Source: publication PMC10848157, “Assessing NH300094, a novel dopamine and serotonin receptor modulator with cognitive enhancement property for treating schizophrenia” (Frontiers in Pharmacology, 2024)

Key:
in vivo = details: male, ICR, mouse, po
male ICR mice = details: p.o.

Cc1nc2n(c(=O)c1CCN1CCC(c3noc4cc(F)ccc34)CC1)CCCC2 [Risperidone, risperidone, reference compound]
ED50 (in vivo): 1.35 mg/kg
minimal dose that induced catalepsy (male ICR mice): 1 mg/kg
